Experiments:
PCSK9/LDLR interaction [1] = molecular target: T1, PCSK9/LDLR interaction (Homo sapiens, UniProt Q8NBP7); test: Recombinant cell based assay: LDLR upregulation in HEK293 cells transfected with LDLR and PCSK9; settings: for IC50s (increase in the LDLR): PCSK9/LDLR HEK293 recombinant cell based assay; for increase in the LDLR (intracellular recombinant LDLR upregulation) as comparable to control: compounds 1-50 μM
Experimental: (§1) HEK-293T cells were seeded into 96 well plates in a DMEM containing 10% Fetal Bovine Serum media and incubated overnight at 37° C. Cells were transiently transfected with LDLR and PCSK9 cDNA constructs using the Lipofectamine-LTX. Compounds (1-50 uM) were added, followed by additional 43 hours of incubation. The cells were lysed and analyzed for LDLR expression and cell viability determined as described in FIG. 7.
as §1, with “8. […] Compound SBC-130,022 has no effect in up-regulating LDLR.” for “7.”
(§2) Considering the difficulty in assaying the LDLR/PCSK9 binding, the approach was to develop and implement an innovative recombinant cell based assay where the full-length PCSK9 and the LDLR genes are expressed into HEK-293 cells, and allowed to decrease the LDLR level by PCSK9 (FIG. 7). Compounds that prevent the LDLR degradation without preventing the auto-processing and secretion of the PCSK9 were selected as potential candidates and were further evaluated using additional cell based assay using endogenously expressed LDLR in liver cells (HepG2 cells).
Preparation of constructs: the human full-length PCSK9 was cloned. The cDNA encoding the PCSK9 sequence with and without a FLAG epitope tag (DYKDDDDK) were cloned by PCR and subcloned into mammalian expression vector containing the cytomegalovirus promoter-enhancer (pCMV-PCSK9-FLAG) (pCDNA3.1/PCSK9). For LDLR, the coding sequence was constructed without tag in mammalian expression vector (pCMV-LDLR) (pCDNA3.1/LDLR). The constructs were confirmed by sequence analysis
The pCDNA3.1/PCSK9, and the pCDNA3.1/LDLR constructs were used to transiently transfect mammalian cells. The human embryonic kidney (HEK)-293 cells were seeded (1×10^5 cells/well) in 24-well plates. Expression plasmids ([…]) were transiently transfected into HEK-293 cells with lipofectamine (Invitrogen) according to the manufacturer's protocol. Twenty four to forty eight hours after transfection, cells were harvested. The cells were then be lysed. Both cell lysate and supernatant were subjected to SDS-PAGE and immunoblot analysis using an anti-PCSK9 or LDLR antibody.
240 compounds identified from the virtual screen in a cell based assay for their potential to upregulate the LDLR in the presence of PCSK9 were tested as described above. Initial screening was done using 50 μM of the compounds. Each compound was added to the cell media in triplicates, and intrecellar LDLR was detected as described above. Each set of compounds were screened at least twice with all appropriate controls. Compounds that upregulate the LDLR were selected for further evaluation.
From the initial screening, 24 compounds were identified as potential hits. Hits confirmation was repeated in triplicates using 50 μM.

Protein sequences, listed by entry. Tags and fused reporters are not part of them. Residues count along the entry.
UniProt Q8NBP7, 153-692 limits assumed: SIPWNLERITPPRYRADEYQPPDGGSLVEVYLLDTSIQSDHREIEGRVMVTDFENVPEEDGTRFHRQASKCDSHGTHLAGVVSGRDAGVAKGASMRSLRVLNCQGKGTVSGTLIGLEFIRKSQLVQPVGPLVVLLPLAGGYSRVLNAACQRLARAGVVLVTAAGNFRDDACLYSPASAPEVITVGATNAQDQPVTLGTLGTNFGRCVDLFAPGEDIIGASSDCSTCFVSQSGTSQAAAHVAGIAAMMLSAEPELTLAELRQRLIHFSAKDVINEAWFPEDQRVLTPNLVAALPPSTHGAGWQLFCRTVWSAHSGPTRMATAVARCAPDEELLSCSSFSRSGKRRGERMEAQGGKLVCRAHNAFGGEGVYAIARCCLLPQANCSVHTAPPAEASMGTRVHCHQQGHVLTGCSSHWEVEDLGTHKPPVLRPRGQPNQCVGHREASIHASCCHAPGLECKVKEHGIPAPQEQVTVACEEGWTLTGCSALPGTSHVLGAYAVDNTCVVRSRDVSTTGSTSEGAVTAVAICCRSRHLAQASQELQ
UniProt Q8NBP7, 31-152 partner limits assumed: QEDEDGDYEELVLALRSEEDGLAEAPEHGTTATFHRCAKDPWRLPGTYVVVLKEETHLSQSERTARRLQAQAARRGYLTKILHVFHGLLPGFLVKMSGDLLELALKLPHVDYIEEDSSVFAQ

PCSK9/LDLR interaction [2] = molecular target: T1, PCSK9/LDLR interaction; test: LDLR upregulation in HepG2 cells
Experimental: as §1, with “HepG2” for “HEK-293T”, “MEM” for “DMEM”, “with” for “with LDLR and”, “8.” for “7.”
as §2
The compounds SBC-110,424, SBC-110, 433, and SBC-115,076 were also validated for their ability to up-regulate the endogenously expressed LDLR in HepG2 cells.

[3] = HEK293 cells transfected with LDLR and PCSK9

IC50s (increase in the LDLR) (PCSK9/LDLR interaction [1]) | EC50 (PCSK9/LDLR interaction [1]; read-out: EC50 of LDLR up-regulation, HEK293 cells transfected with LDLR and PCSK9, compounds 1-50 uM, 43 hours incubation) [nM] | up-regulation of endogenously expressed LDLR (PCSK9/LDLR interaction [2]; compounds 1-50 uM) | EC50 (PCSK9/LDLR interaction [2]; read-out: EC50 of up-regulation of LDLR, endogenously expressed LDLR, transfected with PCSK9, compounds 1-50 uM, 43 hours) [nM] | increase in the LDLR (intracellular recombinant LDLR upregulation) as comparable to control (PCSK9/LDLR interaction [1]; [3]) | SMILES
low uM range |  |  |  | concentration dependent increase | Cc1ccccc1Nc1nnc(SCC(=O)Nc2ccc(C(N)=O)cc2)s1
low uM range |  |  |  | concentration dependent increase | NC(=O)c1cc(NC(=O)CSc2nnc(-c3ccc(Cl)cc3)n2CC2CCCO2)cc(C(N)=O)c1 (centres unmarked)
low uM range |  |  |  | concentration dependent increase | COc1ccc(-n2c(SCC(=O)Nc3ccc(C(N)=O)cc3)nnc2-c2cccc(OC)c2)cc1

Second part, the molecule before the results:

SMILES | IC50s (increase in the LDLR) (PCSK9/LDLR interaction [1]) | EC50 (PCSK9/LDLR interaction [1]; read-out: EC50 of LDLR up-regulation, HEK293 cells transfected with LDLR and PCSK9, compounds 1-50 uM, 43 hours incubation) [nM] | up-regulation of endogenously expressed LDLR (PCSK9/LDLR interaction [2]; compounds 1-50 uM) | EC50 (PCSK9/LDLR interaction [2]; read-out: EC50 of up-regulation of LDLR, endogenously expressed LDLR, transfected with PCSK9, compounds 1-50 uM, 43 hours) [nM] | increase in the LDLR (intracellular recombinant LDLR upregulation) as comparable to control (PCSK9/LDLR interaction [1]; [3])
COc1cccc(C(=O)Nc2cnn(C(C)(C)C(=O)NCc3ccccc3)c2)c1 | low uM range | 1600 | concentration dependent up-regulation | 2900 | 
CCN(CC)C(=O)c1ccc(NC(=O)CSc2nnc(-c3cccs3)n2C2CC2)cc1 | low uM range |  |  |  | concentration dependent increase
CN(C)C(=O)c1ccc(NC(=O)c2cc3ccccc3[nH]2)cc1 | low uM range |  |  |  | concentration dependent increase
CNC(=O)c1ccc(NC(=O)c2cc(C)on2)cc1 | low uM range |  |  |  | concentration dependent increase
Cc1ccc(CCc2nc(C(=O)Nc3ccc(C(N)=O)cc3)cs2)cc1 | low uM range |  |  |  | concentration dependent increase
CC(C)(NC(=O)N1CCC(C(N)=O)CC1)c1cccc(C(C)(C)NC(=O)N2CCC(C(N)=O)CC2)c1 | low uM range |  |  |  | concentration dependent increase

Reference: patent publication US20170290806A1, “PCSK9 Inhibitors and Methods of Use Thereof” (Temple University-Of The Commonwealth System of Higher …, priority 2014, published 2017)
